# Laboratory results as given in ChEMBL document CHEMBL1124922 (J Med Chem, 1990).
# Organism: Cricetulus griseus
# Assay: Evaluated for hypersensitivity factor (HF) (HF = IC50 AA8 / IC50 UV-4) values are intra experiment ratios
# Type: functional
smiles,measurement,value
Cc1cccc(N(CCCl)CCCl)c1,Ratio,50
